Experimental data published in PubChem BioAssay (NCI).
The entries are a selection whose mix differs from that of the whole data set.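 Activity criterion: percent growth below 10, measured after cells in 96-well plates were exposed to a single compound concentration for 48 hours.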 Activity calls are given as the source filed them.

Experiments:
Test in all cases: NCI-60 one-dose screen, 48 h (100 = growth as untreated, 0 = no growth, -100 = all killed)
Settings in all cases: 10 µM unless noted
NCI-H23 lung = tested on: NCI-H23 lung
NCI-H226 lung = tested on: NCI-H226 lung
NCI-H322M lung = tested on: NCI-H322M lung
HOP-62 NSCLC = tested on: HOP-62 NSCLC
NCI-H460 lung = tested on: NCI-H460 lung
HOP-92 NSCLC = tested on: HOP-92 NSCLC
NCI-H522 lung = tested on: NCI-H522 lung
A549/ATCC NSCLC = tested on: A549/ATCC NSCLC
786-0 renal = tested on: 786-0 renal
COLO 205 colon = tested on: COLO 205 colon
DU-145 prostate = tested on: DU-145 prostate
K-562 leukemia = tested on: K-562 leukemia
MALME-3M melanoma = tested on: MALME-3M melanoma
MDA-MB-231 breast = tested on: MDA-MB-231 breast
RXF 393 renal = tested on: RXF 393 renal
SF-268 CNS = tested on: SF-268 CNS
SF-295 CNS = tested on: SF-295 CNS
SF-539 CNS = tested on: SF-539 CNS
UACC-257 melanoma = tested on: UACC-257 melanoma
M14 melanoma = tested on: M14 melanoma

Measured: growth

Nc1cccc2ccc([As](=O)(O)O)cc12
inactive: NCI-H23 lung 112% | NCI-H226 lung 99.2% | NCI-H322M lung 115% | HOP-62 NSCLC 86.5% | NCI-H460 lung 108% | HOP-92 NSCLC 112% | NCI-H522 lung 103% | A549/ATCC NSCLC 103% | 786-0 renal 92.7% | COLO 205 colon 133% | DU-145 prostate 120% | K-562 leukemia 109% | MALME-3M melanoma 105% | MDA-MB-231 breast 113% | RXF 393 renal 109% | SF-268 CNS 107% | SF-295 CNS 114% | SF-539 CNS 95.4% | UACC-257 melanoma 107%

Cc1cc([N+](=O)[O-])cc([N+](=O)[O-])c1O
inactive: NCI-H23 lung 100% | NCI-H226 lung 98.5% | NCI-H322M lung 94.9% | HOP-62 NSCLC 96.8% | NCI-H460 lung 106% | HOP-92 NSCLC 88.7% | NCI-H522 lung 105% | A549/ATCC NSCLC 96.6% | 786-0 renal 101% | COLO 205 colon 117% | DU-145 prostate 111% | K-562 leukemia 107% | MALME-3M melanoma 109% | MDA-MB-231 breast 111% | RXF 393 renal 117% | SF-268 CNS 99.4% | SF-295 CNS 100% | SF-539 CNS 101% | UACC-257 melanoma 90.7% | M14 melanoma 102%

CN1C(=O)N(C)P12(Cl)N(C)C(=O)N2C
inactive: NCI-H23 lung 102% | NCI-H226 lung 102% | NCI-H322M lung 113% | HOP-62 NSCLC 119% | NCI-H460 lung 105% | HOP-92 NSCLC 84% | NCI-H522 lung 96.4% | A549/ATCC NSCLC 95.1% | 786-0 renal 102% | COLO 205 colon 111% | DU-145 prostate 105% | K-562 leukemia 106% | MALME-3M melanoma 112% | MDA-MB-231 breast 109% | RXF 393 renal 109% | SF-268 CNS 101% | SF-295 CNS 108% | SF-539 CNS 111% | UACC-257 melanoma 100% | M14 melanoma 105%

ClCCN(CCc1ccccc1)Cc1ccccc1
inactive: NCI-H23 lung 97.5% | NCI-H226 lung 83.9% | NCI-H322M lung 96.1% | HOP-62 NSCLC 106% | NCI-H460 lung 108% | HOP-92 NSCLC 107% | NCI-H522 lung 77.6% | A549/ATCC NSCLC 91.2% | 786-0 renal 99.7% | COLO 205 colon 113% | DU-145 prostate 109% | K-562 leukemia 89.9% | MALME-3M melanoma 105% | MDA-MB-231 breast 112% | RXF 393 renal 105% | SF-268 CNS 101% | SF-295 CNS 101% | SF-539 CNS 95.1% | UACC-257 melanoma 90.7% | M14 melanoma 103%

CN(CCCl)/N=N/c1nc2nc[nH]c(=O)c2[nH]1
inactive: NCI-H23 lung 100% | NCI-H226 lung 118% | NCI-H322M lung 92.1% | HOP-62 NSCLC 79.4% | NCI-H460 lung 113% | HOP-92 NSCLC 105% | NCI-H522 lung 87.2% | A549/ATCC NSCLC 91.9% | 786-0 renal 91.7% | COLO 205 colon 114% | DU-145 prostate 105% | K-562 leukemia 99.9% | MALME-3M melanoma 104% | MDA-MB-231 breast 110% | RXF 393 renal 115% | SF-268 CNS 99.4% | SF-295 CNS 93.9% | SF-539 CNS 92.3% | UACC-257 melanoma 103% | M14 melanoma 106%

Nc1cccc([As](=O)(O)c2ccccc2)c1
inactive: NCI-H23 lung 102% | NCI-H226 lung 107% | NCI-H322M lung 127% | HOP-62 NSCLC 89% | NCI-H460 lung 106% | HOP-92 NSCLC 109% | NCI-H522 lung 91.4% | A549/ATCC NSCLC 105% | 786-0 renal 97.1% | COLO 205 colon 116% | DU-145 prostate 119% | K-562 leukemia 107% | MALME-3M melanoma 123% | MDA-MB-231 breast 109% | RXF 393 renal 77.2% | SF-268 CNS 103% | SF-295 CNS 110% | SF-539 CNS 90.1% | UACC-257 melanoma 16.4% | M14 melanoma 96.3%

O=C(O)COc1ccc([As](=O)(O)O)cc1[N+](=O)[O-]
inactive: NCI-H23 lung 115% | NCI-H226 lung 107% | NCI-H322M lung 121% | HOP-62 NSCLC 80.9% | NCI-H460 lung 107% | HOP-92 NSCLC 114% | NCI-H522 lung 101% | A549/ATCC NSCLC 113% | 786-0 renal 79.2% | COLO 205 colon 133% | DU-145 prostate 118% | K-562 leukemia 108% | MALME-3M melanoma 108% | MDA-MB-231 breast 107% | RXF 393 renal 111% | SF-268 CNS 109% | SF-295 CNS 113% | SF-539 CNS 99.4% | UACC-257 melanoma 99.1%

O=[N+]([O-])c1ccc([N+](=O)[O-])cc1
inactive: NCI-H23 lung 91.4% | NCI-H226 lung 106% | NCI-H322M lung 115% | HOP-62 NSCLC 112% | NCI-H460 lung 115% | HOP-92 NSCLC 91.6% | NCI-H522 lung 105% | A549/ATCC NSCLC 98.6% | 786-0 renal 113% | COLO 205 colon 108% | DU-145 prostate 97.4% | K-562 leukemia 123% | MALME-3M melanoma 104% | MDA-MB-231 breast 82.6% | RXF 393 renal 110% | SF-268 CNS 83.7% | SF-295 CNS 118% | SF-539 CNS 97.8% | UACC-257 melanoma 91.2%
